Measured values reported in paper PMC8691691 (ACS Chemical Neuroscience, 2021).
Substitutions are numbered along the chain they refer to.

Key:
[1] = target: T1, GlyT2 I285F mutant (Rattus norvegicus, UniProt P58295, I285F); test: [3H]glycine transport by GlyT2 mutant in COS7 cells; type: cell-based
T1 construct: expressed in transfected cells; host or cells: COS7
T1 sequence (P58295 1-799 I285F): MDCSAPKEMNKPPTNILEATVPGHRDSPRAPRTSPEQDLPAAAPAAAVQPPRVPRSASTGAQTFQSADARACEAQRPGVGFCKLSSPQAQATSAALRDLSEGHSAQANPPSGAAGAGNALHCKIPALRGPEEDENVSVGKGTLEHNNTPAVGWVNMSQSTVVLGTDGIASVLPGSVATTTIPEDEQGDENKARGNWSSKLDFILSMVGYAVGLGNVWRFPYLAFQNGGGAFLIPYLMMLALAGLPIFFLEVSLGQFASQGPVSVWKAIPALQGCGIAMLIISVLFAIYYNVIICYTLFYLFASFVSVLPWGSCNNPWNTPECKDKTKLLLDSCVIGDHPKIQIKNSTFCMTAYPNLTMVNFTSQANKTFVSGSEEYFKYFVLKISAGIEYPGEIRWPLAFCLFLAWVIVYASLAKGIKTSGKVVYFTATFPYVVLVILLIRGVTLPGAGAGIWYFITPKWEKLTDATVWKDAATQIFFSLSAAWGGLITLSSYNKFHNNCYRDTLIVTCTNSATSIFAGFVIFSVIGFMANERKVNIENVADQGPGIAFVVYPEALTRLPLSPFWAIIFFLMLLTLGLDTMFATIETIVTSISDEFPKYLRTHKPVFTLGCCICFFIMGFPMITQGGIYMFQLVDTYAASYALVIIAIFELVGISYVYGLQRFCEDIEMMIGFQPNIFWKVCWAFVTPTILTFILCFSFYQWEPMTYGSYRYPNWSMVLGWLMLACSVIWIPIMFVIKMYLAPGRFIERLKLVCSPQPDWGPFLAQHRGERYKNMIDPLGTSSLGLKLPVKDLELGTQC
Excerpt: (§1) To validate the predicted interactions between the inhibitors and GlyT2, we used systematic site-directed mutagenesis to construct substitution mutants of the potential residues involved in ligand binding. […] The GlyT2 residues predicted to interact with the inhibitors through its side chain were replaced by amino acids expected to force the loss of the interaction. In the cases where the interaction occurred through the backbone, the inserted amino acid sought to alter the disposition of the substituted residue to lose the coordination. […] Most of the mutants were active, although depicted lower activity as compared to the wild-type. […] These two residues are preserved throughout the NSS family, and Tyr-289 has proven to have an important structural role in stabilizing the unwound portion of the TM1 helix, whereas Tyr-209 has a key role in S1 site formation through its interaction with Ser-481.[25],[30],[33] Other residues such as Leu-213 or Ser-479 are involved in the formation of the glycine-binding site and Na^+-binding site, respectively.
(§2) Substitution mutants were generated with the QuikChange II Site-Directed Mutagenesis kit (Agilent Technologies, Santa Clara, CA, USA), using rGlyT2 or rGlyT1 subcloned in pCDNA3.[47] The complete coding region of all of the constructs was sequenced to verify that only the desired mutation had been introduced. Plasmids from two independent Escherichia coli colonies were expressed in eukaryotic cells as indicated below, and [^3H]glycine transport and/or immunodetection was performed for verification. COS7 cells were grown and transfected using Turbofect Transfection Reagent (Thermo Fisher Scientific, Waltham, MA, USA), following the manufacturer’s protocol (2 μL reagent/μg of DNA). Cells were incubated for 48 h at 37 °C until used.
(§3) COS7 cells were washed and incubated at 37 °C in HEPES-buffered saline (HBS, in mM: 150 NaCl, 10 HEPES-Tris, pH 7.4, 1 CaCl2, 5 KCl, 1 MgSO4, 10 glucose) containing 2 μCi/mL [2-^3H]glycine (1.6 TBq/mmol; PerkinElmer Life Sciences), at 10 μM final glycine concentration if not otherwise stated.[48] At the end of the desired time (usually 10 min), reactions were washed and terminated by aspiration. Protein concentration (Bradford) and [2-^3H]glycine levels (liquid scintillation, LKB 1219 Rackbeta) were determined. Glycine accumulation measured in mock-transfected cells was subtracted from that of the transporter-transfected cells and normalized by the protein concentration. Kinetic analyses were performed by varying glycine concentration in the uptake medium between 0.5 and 500 μM. […] The determinations of the IC50 were performed initially by diluting compounds by log steps with the vehicle from 1 nM to 1 μM. Then, exact IC50 values were determined by means of 8-point concentration curves performed over a suitable range using half log dilutions with the vehicle. A nonlinear curve fitting method was used to obtain IC50 values using Graphpad Prism software, version 6.0, Graphpad, San Diego, CA, USA.

[2] = target: T2, GlyT2 L576I mutant (Rattus norvegicus, UniProt P58295, L576I); test: as above; type: cell-based
T2 construct: expressed in transfected cells; host or cells: COS7
T2 sequence (P58295 1-799 L576I): T1 sequence (P58295 1-799 I285F) with F285I, L576I
Excerpt: as §1, §2, §3

Q: What does the source list for `NCC(=O)O` [Gly, glycine]?
A: EC50 [1]: 603 ± 86 µM; EC50 [2]: 372 ± 40 µM
